This is an account of results in patent publication US20240058459A1 (Ashvattha Therapeutics, Inc., priority 2019, published 2024).

One series is described as follows: Toxicokinetics in rats. Type of series: in vivo, Sprague-Dawley rats. The note with it: D-4517 12 mg/kg daily IP, sunitinib 30 mg/kg daily oral.
For series [1], the system named is corneal neovascularization. Particulars: topical, rabbit model of corneal neovascularization; cited from earlier work.

As for `CCN(CC)CCNC(=O)c1c(C)[nH]c(/C=C2\C(=O)Nc3ccc(F)cc32)c1C` [free sunitinib, sunitinib, reference compound], in “Toxicokinetics in rats”, the “time post-dosing up to which plasma concentration was measurable” value was not below 24 h. In addition, the “effectiveness relative to bevacizumab” value in series [1] is reported as “almost three times as effective as bevacizumab”.
